pIC50: −log10 of the molar value.
What was measured:
Phospholipase D2 = Phospholipase D2 (Homo sapiens, UniProt O14939); assay: Inhibition of GFP-fused PLD2 (unknown origin) expressed in HEK293 cells by cellular assay; type: cell-based
Phospholipase D1 = target: T1, Phospholipase D1 (Homo sapiens, UniProt Q13393); assay: Inhibition of PLD1 in human Calu1 cells; type: cell-based
T1 sequence (Q13393 whole entry): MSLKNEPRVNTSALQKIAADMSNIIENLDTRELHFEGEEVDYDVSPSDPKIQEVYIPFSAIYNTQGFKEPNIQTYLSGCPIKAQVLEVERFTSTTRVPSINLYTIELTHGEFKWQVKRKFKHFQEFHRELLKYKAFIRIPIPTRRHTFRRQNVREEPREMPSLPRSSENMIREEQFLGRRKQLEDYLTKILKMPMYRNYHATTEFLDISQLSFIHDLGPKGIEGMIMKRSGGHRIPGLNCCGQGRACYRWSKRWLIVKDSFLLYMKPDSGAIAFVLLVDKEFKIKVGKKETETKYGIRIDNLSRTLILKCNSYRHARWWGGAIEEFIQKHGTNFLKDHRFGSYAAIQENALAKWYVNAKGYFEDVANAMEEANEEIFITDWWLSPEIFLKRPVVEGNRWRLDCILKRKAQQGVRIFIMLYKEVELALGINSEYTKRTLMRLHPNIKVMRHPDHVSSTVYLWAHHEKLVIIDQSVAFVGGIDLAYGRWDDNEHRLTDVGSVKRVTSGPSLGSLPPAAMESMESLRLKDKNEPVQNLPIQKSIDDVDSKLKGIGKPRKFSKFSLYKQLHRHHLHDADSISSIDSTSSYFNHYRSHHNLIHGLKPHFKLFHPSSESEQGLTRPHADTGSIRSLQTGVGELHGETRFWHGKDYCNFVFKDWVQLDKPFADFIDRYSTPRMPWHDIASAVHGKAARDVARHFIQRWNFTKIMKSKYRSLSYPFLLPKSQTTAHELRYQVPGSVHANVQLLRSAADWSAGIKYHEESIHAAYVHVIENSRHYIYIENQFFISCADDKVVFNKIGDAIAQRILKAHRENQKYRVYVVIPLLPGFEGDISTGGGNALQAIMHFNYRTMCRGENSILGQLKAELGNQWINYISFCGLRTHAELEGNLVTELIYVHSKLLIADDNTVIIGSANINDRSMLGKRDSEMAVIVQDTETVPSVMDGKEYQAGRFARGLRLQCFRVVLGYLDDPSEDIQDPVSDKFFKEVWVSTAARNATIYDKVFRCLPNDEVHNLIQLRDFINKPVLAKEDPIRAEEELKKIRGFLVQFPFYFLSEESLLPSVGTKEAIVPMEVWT

Amino acid sequences for entries named in this document (tags omitted). A change or cut given only in a name is not applied to a line headed by its entry.
UniProt O14939: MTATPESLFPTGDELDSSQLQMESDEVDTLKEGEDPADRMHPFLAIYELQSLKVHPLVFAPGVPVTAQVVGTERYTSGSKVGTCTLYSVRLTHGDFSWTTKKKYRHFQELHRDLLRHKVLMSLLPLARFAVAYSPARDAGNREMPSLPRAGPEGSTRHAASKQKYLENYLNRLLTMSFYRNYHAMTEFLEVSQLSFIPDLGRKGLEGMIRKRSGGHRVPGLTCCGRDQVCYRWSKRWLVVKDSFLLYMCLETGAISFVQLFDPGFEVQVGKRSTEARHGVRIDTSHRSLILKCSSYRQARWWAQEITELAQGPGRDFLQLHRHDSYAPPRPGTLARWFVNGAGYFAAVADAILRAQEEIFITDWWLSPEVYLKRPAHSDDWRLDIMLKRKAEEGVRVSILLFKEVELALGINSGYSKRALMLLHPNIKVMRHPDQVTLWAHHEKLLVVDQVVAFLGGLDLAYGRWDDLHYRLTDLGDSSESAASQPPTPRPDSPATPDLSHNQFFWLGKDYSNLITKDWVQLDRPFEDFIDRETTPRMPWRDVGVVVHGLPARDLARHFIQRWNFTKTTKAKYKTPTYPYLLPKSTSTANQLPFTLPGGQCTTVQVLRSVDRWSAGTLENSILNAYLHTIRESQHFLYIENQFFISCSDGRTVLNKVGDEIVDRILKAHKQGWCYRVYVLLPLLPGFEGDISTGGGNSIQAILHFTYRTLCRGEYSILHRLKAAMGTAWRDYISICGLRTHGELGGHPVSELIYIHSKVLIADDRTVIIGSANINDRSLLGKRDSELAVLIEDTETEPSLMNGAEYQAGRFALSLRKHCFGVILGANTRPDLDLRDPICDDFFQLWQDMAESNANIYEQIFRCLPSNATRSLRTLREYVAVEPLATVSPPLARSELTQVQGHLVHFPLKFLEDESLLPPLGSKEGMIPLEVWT

Structure (SMILES) | pIC50 (Phospholipase D2) | pIC50 (Phospholipase D1)
C[C@@H](CN1CCC2(CC1)C(=O)NC[C@@H]2c1ccc(F)cc1)NC(=O)c1cnc2ccccc2c1 | 6.15 | 6.70
O=C(NCCN1CCC2(CC1)C(O)=NC[C@H]2c1ccc(F)cc1)c1cnc2ccccc2c1 | 7.22 | 5.87
O=C(NCCN1CCC2(CC1)C(O)=NC[C@H]2c1ccc(F)cc1)c1ccc(F)cc1 | 6.66 | 5.26
O=C(NCCN1CCC2(CC1)C(=O)NC[C@@H]2c1ccc(F)cc1)c1cnc2ccccc2c1 | 6.35 | 4.92
O=C(NCCN1CCC2(CC1)C(=O)NC[C@@H]2c1ccc(F)cc1)c1ccc(F)cc1 | 5.50 | < 4.70
C[C@@H](CN1CCC2(CC1)C(=O)NC[C@H]2c1ccc(F)cc1)NC(=O)c1cnc2ccccc2c1 | 6.94 | 7.60

Source: ChEMBL document CHEMBL4325916, “Isoform selective PLD inhibition by novel, chiral 2,8-diazaspiro[4.5]decan-1-one derivatives” (Bioorg Med Chem Lett, 2018)
